The structures appear in SMILES notation.

Amino acid sequences for entries named in this document (tags omitted).
UniProt Q87T56, whole entry: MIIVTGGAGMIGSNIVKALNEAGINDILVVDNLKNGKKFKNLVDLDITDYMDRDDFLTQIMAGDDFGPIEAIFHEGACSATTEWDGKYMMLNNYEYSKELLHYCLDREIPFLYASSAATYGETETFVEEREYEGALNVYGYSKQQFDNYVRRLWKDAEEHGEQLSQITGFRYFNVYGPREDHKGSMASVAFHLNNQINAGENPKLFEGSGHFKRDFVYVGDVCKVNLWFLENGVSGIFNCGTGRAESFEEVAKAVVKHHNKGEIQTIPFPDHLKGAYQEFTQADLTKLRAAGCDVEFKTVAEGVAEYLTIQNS

For the assay, the target named is T1, HldDVP (Vibrio parahaemolyticus, UniProt Q87T56).
T1 construct: gene hldD
Put plainly: HPLC turnover assay. It is filed as biochemical. The following applies: 0.2 mM substrate, 2 mM NAD+, pH 8.0, 30 °C, 1 h.

Consider `Nc1ncnc2c1ncn2[C@@H]1O[C@H](COP(=O)(O)OP(=O)(O)O[C@@H]2O[C@H]([C@H](O)CO)[C@@H](O)[C@H](O)[C@@H]2O)[C@@H](O)[C@H]1O` [ADP-D,D-manno-heptose], for which the HPLC turnover assay result is recorded as “HldDVP could also convert ADP-D,D-manno-heptose to ADP-L,D-manno-heptose under the same assay conditions”. Take `Nc1ncnc2c1ncn2[C@@H]1O[C@H](COP(=O)(O)OP(=O)(O)O[C@@H]2O[C@H]([C@@H](O)CO)[C@@H](O)[C@H](O)[C@@H]2O)[C@@H](O)[C@H]1O` [ADP-L,D-manno-heptose]: the HPLC turnover assay entry is recorded as “HldDVP could also convert ADP-D,D-manno-heptose to ADP-L,D-manno-heptose under the same assay conditions”.

The record behind these values is PMC10948575, “Characterization of the ADP-β-D-manno-heptose biosynthetic enzymes from two pathogenic Vibrio strains” (Applied Microbiology and Biotechnology, 2024).
